# Data: ChEMBL document CHEMBL3826965, “Synthesis and in vitro reactivation study of isonicotinamide derivatives of 2-(hydroxyimino)-N-(pyridin-3-yl)acetamide as reactivators of Sarin and VX inhibited human acetylcholinesterase (hAChE)” (2016)
# Experiment: Acid dissociation constant, pKa of the compound in 5.97 to 8.05 pH of phosphate/8.44 to 9.12 pH of tris/9.52 to 10.48 pH of glycine-NaOH buffer by spectrophotometry
smiles,measurement,value
NC(=O)c1cc[n+](CCC[n+]2cccc(NC(=O)/C=N\O)c2)cc1.[Br-].[Br-],pKa,8.25
NC(=O)c1cc[n+](CC[n+]2cccc(NC(=O)/C=N\O)c2)cc1.[Br-].[Br-],pKa,8.25
NC(=O)c1cc[n+](CCCCC[n+]2cccc(NC(=O)/C=N\O)c2)cc1.[Br-].[Br-],pKa,8.25
NC(=O)c1cc[n+](CCCC[n+]2cccc(NC(=O)/C=N\O)c2)cc1.[Br-].[Br-],pKa,8.25
